{"source": "paper PMC9794608", "about": "(Frontiers in Veterinary Science, 2022)", "origin": "cited, not measured here", "tested_on": "dogs", "details": "in approximation with the dose and schedule tested; cited from earlier work", "data": [{"smiles": "CC(=O)Nc1cccc(-n2c(=O)n(C3CC3)c(=O)c3c(Nc4ccc(I)cc4F)n(C)c(=O)c(C)c32)c1", "note": "[Trametinib, trametinib dimethyl sulfoxide]", "values": [{"measurement": "Tolerability in dogs over 13-week periods", "value": "tolerated"}]}]}
